Measurements: patent US8686113B2 (priority 2009, dated 2014)

Test system: human erythrocytes
Test: Hemolysis test
Assay type: cell-based
Conditions: 1 h at 37° C., relative to Triton X-100
Text: Another possibility for investigating the cytotoxicity of the peptides and peptide derivatives is the hemolysis test. The hemolytic activity is investigated on human erythrocytes (Ryge T S & Hansen P R. Potent antibacterial lysine-peptoid hybrids identified from a positional scanning combinatorial library. Bioorganic & Medicinal Chemistry 14: 4444-51, 2006), which the Leipzig University Hospital (Germany) made available as human erythrocyte concentrate in sodium chloride-adenine-glucose-mannitol buffer (stored at 4° C.). The erythrocytes were centrifuged off at 1000 g and washed three times with ten times the volume of cold phosphate-buffered saline (PBS, pH 7.4). The erythrocytes were diluted to a final concentration of 1% in PBS. […] 100 μL was taken from the supernatant, transferred to a 96-well flat-bottomed polystyrene microtiter plate (Greiner Bio-One GmbH) and the absorption was determined at 405 nm in a Sunrise microtiter plate reader (Tecan Trading AG, Mannedorf, Switzerland), to evaluate the release of the heme group. […] All hemolysis tests were carried out twice independently as double determination and the degree of hemolysis was determined from the following equation (Park Y et al. A Leu-Lys-rich antimicrobial peptide: activity and mechanism. Biochimica et Biophysica Acta-Proteins and Proteomics 1645: 172-82, 2003): Epeptide−EPBS)/ETriton−EPBS)×100% E=extinction at 405 nm

SMILES: CC[C@H](C)[C@H](NC(=O)CN)C(=O)NCC(=O)N[C@@H](C)C(=O)N[C@H](C(=O)N[C@@H](CC(C)C)C(=O)N[C@@H](CCCCN)C(=O)N[C@H](C(=O)N[C@@H](CC(C)C)C(=O)N[C@H](C(=O)N[C@H](C(=O)NCC(=O)N[C@@H](CC(C)C)C(=O)N1CCC[C@H]1C(=O)N[C@@H](C)C(=O)N[C@@H](CC(C)C)C(=O)N[C@H](C(=O)N[C@@H](CO)C(=O)N[C@@H](Cc1c[nH]c2ccccc12)C(=O)N[C@H](C(=O)N[C@@H](CCCCN)C(=O)N[C@@H](CCCNC(=N)N)C(=O)N[C@@H](CCCCN)C(=O)N[C@@H](CCCNC(=N)N)C(=O)N[C@@H](CCC(N)=O)C(=O)N[C@@H](CCC(N)=O)C(N)=O)[C@@H](C)CC)[C@@H](C)CC)[C@@H](C)O)[C@@H](C)O)C(C)C)C(C)C [Melittin, reference compound]
- Degree of hemolysis [%] at 600 μg/mL: 96.3%
